Source: patent US4889861A, “Substituted imidazo[1,5-a]pyridine derivatives and other substituted bicyclic derivatives and their use as aromatase inhibitors” (Ciba-Geigy Corp., priority 1987, dated 1989)

Tested on: aromatase
Assay: in vivo inhibition of aromatase activity: suppression of ovarian estrogen content of PMS-hCG primed female rats
Conditions: Rattus norvegicus, po

N#Cc1ccc(C2CCc3cncn32)cc1 (stereo not shown) [Example 31, 5H-5-(4-cyanophenyl)-6,7-dihydropyrrolo[1,2-c]imidazole]
minimal effective dose: 0.025 mg/kg
